The record followed here is US20050090505A1, “Methods of reducing risk of infection from pathogens” (priority 2003, published 2005).

Protein sequences, listed by entry. Tags and fused reporters are not part of them. Residues count along the entry.
UniProt A0A8I3MKE6, 1-646: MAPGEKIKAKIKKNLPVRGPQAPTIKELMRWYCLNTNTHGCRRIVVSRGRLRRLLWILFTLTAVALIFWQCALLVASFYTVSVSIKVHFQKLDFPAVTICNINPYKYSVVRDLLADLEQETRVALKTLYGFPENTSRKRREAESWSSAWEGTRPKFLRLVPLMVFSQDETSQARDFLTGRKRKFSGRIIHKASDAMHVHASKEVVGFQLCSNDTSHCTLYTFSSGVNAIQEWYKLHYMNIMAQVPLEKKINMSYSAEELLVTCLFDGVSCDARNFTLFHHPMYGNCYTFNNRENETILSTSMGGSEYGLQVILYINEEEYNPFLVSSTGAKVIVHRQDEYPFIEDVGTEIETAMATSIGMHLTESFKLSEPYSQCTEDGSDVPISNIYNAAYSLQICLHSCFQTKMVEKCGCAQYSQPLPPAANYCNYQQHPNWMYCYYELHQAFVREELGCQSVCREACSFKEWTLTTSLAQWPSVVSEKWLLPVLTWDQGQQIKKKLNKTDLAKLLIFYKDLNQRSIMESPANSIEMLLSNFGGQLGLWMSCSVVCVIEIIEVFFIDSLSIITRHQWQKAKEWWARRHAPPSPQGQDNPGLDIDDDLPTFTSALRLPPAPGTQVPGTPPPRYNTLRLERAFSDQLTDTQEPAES
UniProt A0A8I3Q679, 1-649: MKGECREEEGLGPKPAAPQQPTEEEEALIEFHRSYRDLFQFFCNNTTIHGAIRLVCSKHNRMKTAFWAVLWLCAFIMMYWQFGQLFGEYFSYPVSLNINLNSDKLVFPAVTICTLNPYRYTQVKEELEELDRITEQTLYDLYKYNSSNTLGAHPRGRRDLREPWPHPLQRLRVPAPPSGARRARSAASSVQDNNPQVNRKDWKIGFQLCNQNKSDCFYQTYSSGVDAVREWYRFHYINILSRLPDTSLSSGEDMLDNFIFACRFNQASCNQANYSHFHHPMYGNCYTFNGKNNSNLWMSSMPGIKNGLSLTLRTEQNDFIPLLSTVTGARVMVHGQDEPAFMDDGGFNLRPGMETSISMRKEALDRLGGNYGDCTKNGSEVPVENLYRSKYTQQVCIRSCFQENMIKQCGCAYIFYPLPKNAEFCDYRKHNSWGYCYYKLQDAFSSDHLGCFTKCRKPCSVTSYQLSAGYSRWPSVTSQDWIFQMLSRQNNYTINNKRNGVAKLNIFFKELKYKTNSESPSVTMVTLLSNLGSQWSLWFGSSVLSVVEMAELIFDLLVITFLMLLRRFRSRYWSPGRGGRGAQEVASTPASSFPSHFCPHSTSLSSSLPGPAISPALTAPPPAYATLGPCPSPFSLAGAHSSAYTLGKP
UniProt Q95165, whole entry: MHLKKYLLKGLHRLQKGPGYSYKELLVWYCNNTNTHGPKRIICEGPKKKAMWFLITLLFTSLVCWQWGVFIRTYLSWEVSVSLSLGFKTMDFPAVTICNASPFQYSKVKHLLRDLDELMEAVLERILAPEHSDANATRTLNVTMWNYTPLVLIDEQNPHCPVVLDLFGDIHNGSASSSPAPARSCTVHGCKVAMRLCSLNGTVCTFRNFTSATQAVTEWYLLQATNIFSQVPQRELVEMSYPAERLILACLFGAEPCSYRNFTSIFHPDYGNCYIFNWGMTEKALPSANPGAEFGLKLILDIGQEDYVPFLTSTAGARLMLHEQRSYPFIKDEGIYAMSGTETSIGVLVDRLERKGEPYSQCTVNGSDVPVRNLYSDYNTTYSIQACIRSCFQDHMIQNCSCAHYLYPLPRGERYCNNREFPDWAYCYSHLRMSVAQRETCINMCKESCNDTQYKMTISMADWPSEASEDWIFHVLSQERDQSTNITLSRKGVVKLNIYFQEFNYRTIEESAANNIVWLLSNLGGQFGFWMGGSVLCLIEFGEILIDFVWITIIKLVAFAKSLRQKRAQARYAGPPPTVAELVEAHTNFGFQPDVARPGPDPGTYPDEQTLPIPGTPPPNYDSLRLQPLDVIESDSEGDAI

One test addresses airway epithelial sodium currents (sodium channel) (UniProt A0A8I3MKE6+A0A8I3Q679+Q95165). The test can be described thus: Sodium channel blocking activity: inhibition of short circuit current (ISC) in airway epithelial monolayers mounted in Ussing chambers. The following applies: Capped Pyrazinoylguanidines; relative potency for PSA 4022 = 100 using EC50 from PSA 4022 in same run. As to the method: In Vitro Measure of Sodium Channel Blocking Activity and Reversibility
One assay used to assess mechanism of action and/or potency of the compounds of the present invention involves the determination of lumenal drug inhibition of airway epithelial sodium currents measured under short circuit current (ISC) using airway epithelial monolayers mounted in Ussing chambers. Cells obtained from freshly excised human, dog, sheep or rodent airways are seeded onto porous 0.4 micron Snapwell™ Inserts (CoStar), cultured at air-liquid interface (ALI) conditions in hormonally defined media, and assayed for sodium transport activity (ISC) while bathed in Krebs Bicarbonate Ringer (KBR) in Using chambers. All test drug additions are to the lumenal bath with half-log dose addition protocols (from 1×10^−11 M to 3×10^−5 M), and the cumulative change in ISC (inhibition) recorded. All drugs are prepared in dimethyl sulfoxide as stock solutions at a concentration of 1×10^−2 M and stored at −20° C. Eight preparations are typically run in parallel; two preparations per run incorporate amiloride and/or benzamil as positive controls. After the maximal concentration (5×10^−5 M) is administered, the lumenal bath is exchanged three times with fresh drug-free KBR solution, and the resultant ISC measured after each wash for approximately 5 minutes in duration. Reversibility is defined as the percent return to the baseline value for sodium current after the third wash. All data from the voltage clamps are collected via a computer interface and analyzed off-line.
Dose-effect relationships for all compounds are considered and analyzed by the Prism 3.0 program. IC50 values, maximal effective concentrations, and reversibility are calculated and compared to amiloride and benzamil as positive controls.
Consider `CN(C)C(=O)Sc1ccc(CCCCNC(=N)NC(=O)c2nc(Cl)c(N)nc2N)cc1`, for which the “Fold Amiloride** (PSA 4022 = 100)” value was 112 ± 52.
Still for that read-out and setting: as for `N=C(NCCCCc1ccc(OCCCn2ccnc2)cc1)NC(=O)c1nc(Cl)c(N)nc1N`, the figure is 42 ± 17; as for `N=C(NCCCCc1ccc(NC(=O)CCC(=O)O)cc1)NC(=O)c1nc(Cl)c(N)nc1N`, 13 ± 4; as for `N=C(NCCCCc1ccc(NC(=O)CCC(N)=O)cc1)NC(=O)c1nc(Cl)c(N)nc1N`, 49 ± 15.
As to `N=C(NCCCCc1ccc(S(N)(=O)=O)cc1)NC(=O)c1nc(Cl)c(N)nc1N`, the “Fold Amiloride** (PSA 4022 = 100)” value is given as 76 ± 25.

The same test, now with this note: Capped Pyrazinoylguanidines; relative potency for PSA 4022 = 100 using EC50 from PSA 4022 in same run; tested form: 2HCl.
As for `N=C(NCCCCc1ccc(C[C@@H](N)CC(N)=O)cc1)NC(=O)c1nc(Cl)c(N)nc1N`, the “Fold Amiloride** (PSA 4022 = 100)” value was 107 ± 38.
Consider `N=C(NCCCCc1ccc(OCCC2N=C(N)NC2=O)cc1)NC(=O)c1nc(Cl)c(N)nc1N` (stereo not shown), for which the “Fold Amiloride** (PSA 4022 = 100)” value is 136 ± 58.
The same measure, in the same setting: next, `N=C(NCCCCc1ccc(OC2CN[C@H](C(N)=O)C2)cc1)NC(=O)c1nc(Cl)c(N)nc1N` (stereo partly shown): 32 ± 10.

Still in this test, the particulars now being: Capped Pyrazinoylguanidines; relative potency for PSA 4022 = 100 using EC50 from PSA 4022 in same run; tested form: HCl.
Regarding `COc1ccc(CN2C(=O)OC(CCCOc3ccc(CCCCNC(=N)NC(=O)c4nc(Cl)c(N)nc4N)cc3)C2=O)cc1` (stereo not shown), the “Fold Amiloride** (PSA 4022 = 100)” value was 32 ± 16.
On the same count and under the same terms, next, `CN(C)S(=O)(=O)CCCOc1ccc(CCCCNC(=N)NC(=O)c2nc(Cl)c(N)nc2N)cc1`: 83 ± 26.
